For one experiment, the target named is T1, CRF1R (Homo sapiens, UniProt P34998).
T1 sequence (P34998 24-415): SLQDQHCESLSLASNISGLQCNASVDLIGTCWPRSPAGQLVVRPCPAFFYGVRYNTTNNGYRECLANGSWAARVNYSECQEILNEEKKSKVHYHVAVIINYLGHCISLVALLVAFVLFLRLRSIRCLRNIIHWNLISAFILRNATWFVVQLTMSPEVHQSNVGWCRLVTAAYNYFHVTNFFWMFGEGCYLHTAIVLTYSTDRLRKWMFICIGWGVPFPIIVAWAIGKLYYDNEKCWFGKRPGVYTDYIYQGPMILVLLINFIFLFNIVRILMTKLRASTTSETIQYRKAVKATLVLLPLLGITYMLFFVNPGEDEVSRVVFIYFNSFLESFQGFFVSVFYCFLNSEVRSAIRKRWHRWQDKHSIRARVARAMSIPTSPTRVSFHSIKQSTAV
As to the kind of experiment: CRF1R agonist activation (EC50 / Emax), called comparative CRF binding. The conditions noted are these: for EC50: CRF1R EC50; for Emax: read-out: CRF1R Emax. It counts as cell-based. A digest of the protocol:
(§1)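 Peptides are tested on cells bearing CRF1R or CRF2R, full length or as ligand-binding-domain constructs coupled to reporters or G proteins. Activation is scored by cAMP rise, measured in lysates or by CRE-reporter output, against vehicle control.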

In another experiment the target is T2, CRF2R (Homo sapiens, UniProt Q13324).
T2 sequence (Q13324 1-411): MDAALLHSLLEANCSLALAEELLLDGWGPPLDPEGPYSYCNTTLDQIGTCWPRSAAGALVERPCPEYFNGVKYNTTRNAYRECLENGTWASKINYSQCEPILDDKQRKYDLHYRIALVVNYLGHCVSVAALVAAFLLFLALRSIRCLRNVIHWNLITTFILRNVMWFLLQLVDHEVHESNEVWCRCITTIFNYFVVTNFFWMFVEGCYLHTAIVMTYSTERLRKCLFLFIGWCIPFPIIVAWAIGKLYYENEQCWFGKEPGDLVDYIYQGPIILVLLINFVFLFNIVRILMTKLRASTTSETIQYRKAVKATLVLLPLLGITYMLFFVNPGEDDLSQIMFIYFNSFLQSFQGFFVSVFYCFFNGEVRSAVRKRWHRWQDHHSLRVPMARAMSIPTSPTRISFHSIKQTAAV
The experiment in a line: CRF2R agonist activation (EC50 / Emax), called comparative CRF binding. It counts as cell-based. Particulars: for Emax: read-out: CRF2R Emax. A digest of the protocol: as §1

A value given as a limit tells only on which side of the number the result lay.

By EC50 is commonly meant the midpoint of the concentration-response curve. Low values mean an effect from little substance, high ones a need for much substance. For orientation: Emax means the size of the effect at its maximum, as opposed to the concentration needed.

Consider `CC[C@H](C)[C@H](NC(=O)[C@H](C)NC(=O)[C@H](CCCCN)NC(=O)[C@H](CCCNC(=N)N)NC(=O)[C@H](CC(C)C)NC(=O)[C@H](CC(C)C)NC(=O)[C@H](CCC(N)=O)NC(=O)[C@H](Cc1ccccc1)NC(=O)[C@@H]1CCCN1C(=O)[C@H](CC(C)C)NC(=O)[C@H](CC(=O)O)NC(=O)[C@@H](NC(=O)[C@H](CO)NC(=O)[C@@H](NC(=O)[C@@H]1CCCN1C(=O)[C@@H]1CCCN1C(=O)CNC(=O)[C@@H]1CCC(=O)N1)[C@@H](C)CC)[C@@H](C)CC)C(=O)N[C@@H](CCC(=O)O)C(=O)N[C@H](C(=O)N[C@@H](CCC(=O)O)C(=O)N[C@@H](CCCCN)C(=O)N[C@@H](CCC(N)=O)C(=O)N[C@@H](CCC(=O)O)C(=O)N[C@@H](CCCCN)C(=O)N[C@@H](CCC(=O)O)C(=O)N[C@@H](CCCCN)C(=O)N[C@@H](CCC(N)=O)C(=O)N[C@@H](CCC(N)=O)C(=O)N[C@@H](C)C(=O)N[C@H](C(=O)N[C@H](C(=O)N[C@@H](CC(N)=O)C(=O)N[C@@H](C)C(=O)N[C@@H](CCCNC(=N)N)C(=O)N[C@@H](CC(C)C)C(=O)N[C@@H](CC(C)C)C(=O)N[C@@H](CC(=O)O)C(=O)N[C@@H](CCCNC(=N)N)C(=O)N[C@H](C(N)=O)C(C)C)[C@@H](C)O)[C@@H](C)O)[C@@H](C)CC` [compound 363], for which, at CRF1R, the EC50 is at least 1000 nM and the maximal response (Emax) is 20%. In addition, on CRF2R, the midpoint of the response, the EC50, lay at 25.1 nM and the Emax is 100%.
With `CC[C@H](C)[C@H](NC(=O)[C@@H](NC(=O)[C@H](CC(=O)O)NC(=O)[C@H](CC(C)C)NC(=O)[C@H](CC(C)C)NC(=O)[C@H](CC(C)C)NC(=O)[C@H](CCCNC(=N)N)NC(=O)[C@H](CC(N)=O)NC(=O)[C@H](CC(N)=O)NC(=O)[C@H](C)NC(=O)[C@H](C)NC(=O)[C@H](CCC(N)=O)NC(=O)[C@H](CCC(N)=O)NC(=O)[C@H](CCCCN)NC(=O)[C@H](CCC(=O)O)NC(=O)[C@H](CCCCN)NC(=O)[C@H](CCC(=O)O)NC(=O)[C@H](CCC(N)=O)NC(=O)[C@H](CCCCN)NC(=O)[C@H](CCC(=O)O)NC(=O)[C@@H](NC(=O)[C@H](CCC(=O)O)NC(=O)[C@@H](NC(=O)[C@H](CCSC)NC(=O)[C@H](CCCCN)NC(=O)[C@H](CCCNC(=N)N)NC(=O)[C@H](CC(C)C)NC(=O)[C@H](CC(C)C)NC(=O)[C@H](Cc1ccccc1)NC(=O)[C@H](CC(C)C)NC(=O)[C@@H]1CCCN1C(=O)[C@H](CC(C)C)NC(=O)[C@H](CC(=O)O)NC(=O)[C@@H](NC(=O)[C@H](CO)NC(=O)[C@@H](NC(=O)[C@@H]1CCCN1C(=O)[C@@H]1CCCN1C(=O)CNC(=O)[C@@H]1CCC(=O)N1)[C@@H](C)CC)[C@@H](C)CC)[C@@H](C)CC)[C@@H](C)CC)[C@@H](C)O)C(N)=O` [compound 195], the EC50 at CRF1R is 103 nM; at CRF2R, 18.8 nM. Further, the Emax on CRF1R was found to be 93%.
For `CC[C@H](C)[C@H](NC(=O)[C@@H](NC(=O)[C@H](CC(=O)O)NC(=O)[C@H](CC(C)C)NC(=O)[C@H](CC(C)C)NC(=O)[C@H](CCCNC(=N)N)NC(=O)[C@H](C)NC(=O)[C@H](CC(N)=O)NC(=O)[C@H](CC(N)=O)NC(=O)[C@H](C)NC(=O)[C@H](C)NC(=O)[C@H](CCC(N)=O)NC(=O)[C@H](CCC(N)=O)NC(=O)[C@H](CCCCN)NC(=O)[C@H](CCC(=O)O)NC(=O)[C@H](CCCCN)NC(=O)[C@H](CCC(=O)O)NC(=O)[C@H](CCC(N)=O)NC(=O)[C@H](CCCCN)NC(=O)[C@H](CCC(=O)O)NC(=O)[C@@H](NC(=O)[C@H](CCC(=O)O)NC(=O)[C@@H](NC(=O)[C@@H](NC(=O)[C@H](CCCCN)NC(=O)[C@H](CCCNC(=N)N)NC(=O)[C@H](CC(C)C)NC(=O)[C@H](CC(C)C)NC(=O)[C@H](CCC(N)=O)NC(=O)[C@H](Cc1ccccc1)NC(=O)[C@@H]1CCCN1C(=O)[C@H](CC(C)C)NC(=O)[C@H](CC(=O)O)NC(=O)[C@@H](NC(=O)[C@H](CO)NC(=O)[C@@H](NC(=O)[C@@H]1CCCN1C(=O)[C@@H]1CCCN1C(=O)CNC(=O)[C@@H]1CCC(=O)N1)[C@@H](C)CC)[C@@H](C)CC)C(C)C)[C@@H](C)CC)[C@@H](C)CC)[C@@H](C)O)C(N)=O` [compound 278], in that order: at least 1000 nM, 19.6 nM and 48.7%.
For `CC[C@H](C)[C@H](NC(=O)[C@@H](NC(=O)[C@H](CC(=O)O)NC(=O)[C@H](CC(C)C)NC(=O)[C@H](CC(C)C)NC(=O)[C@H](CC(C)C)NC(=O)[C@H](CCCNC(=N)N)NC(=O)[C@H](CC(N)=O)NC(=O)[C@H](CC(N)=O)NC(=O)[C@H](C)NC(=O)[C@H](C)NC(=O)[C@H](CCC(N)=O)NC(=O)[C@H](CCC(N)=O)NC(=O)[C@H](CCCCN)NC(=O)[C@H](CCC(=O)O)NC(=O)[C@H](CCCCN)NC(=O)[C@H](CCC(=O)O)NC(=O)[C@H](CCC(N)=O)NC(=O)[C@H](CCCCN)NC(=O)[C@H](CCC(=O)O)NC(=O)[C@@H](NC(=O)[C@H](CCC(=O)O)NC(=O)[C@@H](NC(=O)[C@H](CCSC)NC(=O)[C@H](CCCCN)NC(=O)[C@H](CCCNC(=N)N)NC(=O)[C@H](CC(C)C)NC(=O)[C@H](CC(C)C)NC(=O)[C@H](Cc1c[nH]cn1)NC(=O)[C@H](CCC(N)=O)NC(=O)[C@@H]1CCCN1C(=O)[C@H](CC(C)C)NC(=O)[C@H](CC(=O)O)NC(=O)[C@@H](NC(=O)[C@H](CO)NC(=O)[C@@H](NC(=O)[C@@H]1CCCN1C(=O)[C@@H]1CCCN1C(=O)CNC(=O)[C@@H]1CCC(=O)N1)[C@@H](C)CC)[C@@H](C)CC)[C@@H](C)CC)[C@@H](C)CC)[C@@H](C)O)C(N)=O` [compound 207], the maximal effect (Emax) at CRF1R came to 88%; at CRF2R, 96%.
In the case of `CC[C@H](C)[C@H](NC(=O)[C@@H](NC(=O)[C@H](CC(=O)O)NC(=O)[C@H](CC(C)C)NC(=O)[C@H](CC(C)C)NC(=O)[C@H](CC(C)C)NC(=O)[C@H](CCCNC(=N)N)NC(=O)[C@H](CC(N)=O)NC(=O)[C@H](CC(N)=O)NC(=O)[C@H](C)NC(=O)[C@H](C)NC(=O)[C@H](CCC(N)=O)NC(=O)[C@H](CCC(N)=O)NC(=O)[C@H](CCCCN)NC(=O)[C@H](CCC(=O)O)NC(=O)[C@H](CCCCN)NC(=O)[C@H](CCC(=O)O)NC(=O)[C@H](CCC(N)=O)NC(=O)[C@H](CCCCN)NC(=O)[C@H](CCC(=O)O)NC(=O)[C@@H](NC(=O)[C@H](CCC(=O)O)NC(=O)[C@@H](NC(=O)[C@H](CCSC)NC(=O)[C@H](CCCCN)NC(=O)[C@H](CCCNC(=N)N)NC(=O)[C@H](CC(C)C)NC(=O)[C@H](CC(C)C)NC(=O)[C@H](Cc1ccc(O)cc1)NC(=O)[C@H](Cc1ccccc1)NC(=O)[C@@H]1CCCN1C(=O)[C@H](CC(C)C)NC(=O)[C@H](CC(=O)O)NC(=O)[C@@H](NC(=O)[C@H](CO)NC(=O)[C@@H](NC(=O)[C@@H]1CCCN1C(=O)[C@@H]1CCCN1C(=O)CNC(=O)[C@@H]1CCC(=O)N1)[C@@H](C)CC)[C@@H](C)CC)[C@@H](C)CC)[C@@H](C)CC)[C@@H](C)O)C(N)=O` [compound 85], the figures for the maximal effect (Emax) at CRF1R and on CRF2R were 84% and 100%, respectively.
`CC[C@H](C)[C@H](NC(=O)[C@@H](NC(=O)[C@H](CC(=O)O)NC(=O)[C@H](CC(C)C)NC(=O)[C@H](CC(C)C)NC(=O)[C@H](CC(C)C)NC(=O)[C@H](CCCNC(=N)N)NC(=O)[C@H](CC(N)=O)NC(=O)[C@H](CC(N)=O)NC(=O)[C@H](C)NC(=O)[C@H](C)NC(=O)[C@H](CCC(N)=O)NC(=O)[C@H](CCC(N)=O)NC(=O)[C@H](CCCCN)NC(=O)[C@H](CCC(=O)O)NC(=O)[C@H](CCCCN)NC(=O)[C@H](CCC(=O)O)NC(=O)[C@H](CCC(N)=O)NC(=O)[C@H](CCCCN)NC(=O)[C@H](CCC(=O)O)NC(=O)[C@@H](NC(=O)[C@H](CCC(=O)O)NC(=O)[C@@H](NC(=O)[C@H](CCSC)NC(=O)[C@H](CCCCN)NC(=O)[C@H](CCCNC(=N)N)NC(=O)[C@H](CC(C)C)NC(=O)[C@H](CC(C)C)NC(=O)[C@@H](NC(=O)[C@H](CCC(N)=O)NC(=O)[C@@H]1CCCN1C(=O)[C@H](CC(C)C)NC(=O)[C@H](CC(=O)O)NC(=O)[C@@H](NC(=O)[C@H](CO)NC(=O)[C@@H](NC(=O)[C@@H]1CCCN1C(=O)[C@@H]1CCCN1C(=O)CNC(=O)[C@@H]1CCC(=O)N1)[C@@H](C)CC)[C@@H](C)CC)[C@@H](C)CC)[C@@H](C)CC)[C@@H](C)CC)[C@@H](C)O)C(N)=O` [compound 199]: the figures for the Emax at CRF1R and on CRF2R were 93% and 92%, respectively.

These data come from patent publication US6936585B2, “Corticotropin releasing factor 2 receptor agonists” (priority 2002, dated 2005).
